The record followed here is US20080306162A1, “Treatment of Inflammatory Disorders and Pain” (priority 2005, published 2008).

By UniProt entry, the sequences of proteins in these tests, tags left out.
UniProt Q8K4Z4, whole entry: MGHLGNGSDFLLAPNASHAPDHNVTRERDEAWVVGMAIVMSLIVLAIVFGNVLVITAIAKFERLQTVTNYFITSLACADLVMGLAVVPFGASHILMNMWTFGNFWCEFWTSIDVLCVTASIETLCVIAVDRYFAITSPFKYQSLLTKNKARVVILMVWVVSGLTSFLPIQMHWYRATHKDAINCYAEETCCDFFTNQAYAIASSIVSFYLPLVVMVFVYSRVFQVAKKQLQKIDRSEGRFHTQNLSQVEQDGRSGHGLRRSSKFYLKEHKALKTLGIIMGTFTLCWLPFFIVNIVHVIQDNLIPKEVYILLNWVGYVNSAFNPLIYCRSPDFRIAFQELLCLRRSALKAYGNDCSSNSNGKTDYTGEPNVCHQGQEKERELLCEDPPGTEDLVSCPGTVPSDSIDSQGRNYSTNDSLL

The experiment deals with Beta2 (Cavia porcellus, UniProt Q8K4Z4). Description: Beta2 agonism functional assay (inhibition of carbachol-stimulated tracheal muscle twitch). The conditions noted are these: read-out: IC50 in the beta agonism functional assay; guinea-pig trachea ring, carbachol-contracted. On the procedure: Guinea-pig trachea ring preparations were suspended in Kreb's solution containing indomethacin. After 15 minutes stabilisation, the preparations were repeated contracted using carbachol and simultaneously treated with increasing cumulative doses test compounds (0.1 nM to 0.1 μM). Beta2 agonism for each test compound was determined by its dose-dependant inhibition of carbachol-stimulated tracheal muscle twitch.

For the compound `COc1ccc(CC(C)NCC(O)c2ccc(O)c(NC=O)c2)cc1` (stereo not shown), the IC50 was determined as 2.2 nM.

The IC50 is the point on the concentration scale where inhibition reaches its midpoint.
